Measurements: patent US20100267753A1, “METHODS OF TREATING DISORDERS ASSOCIATED WITH PROTEIN KINASE CK2 ACTIVITY” (priority 2009, published 2010)
Entries after “also recorded” stand apart in the source; their conditions may differ.

Test: Phase I clinical study, safety and pharmacokinetics
Format: in vivo, human
Settings: between the dose cohorts
Description: Oral doses are administered twice daily for twenty-one consecutive days of a four week cycle. […] Response by RECIST is determined after every 2 cycles. Serial blood and plasma samples are collected on the first and final dosing days of Cycle 1 (i.e., Day 1 and Day 21) for pharmacokinetic analysis and for pharmacodynamic biomarker evaluations (specifically, total and phosphorylated forms of p21 and Akt).
Patients in Cohorts 1-3 were dosed twice daily (BID) with oral capsules.

## O=C(O)c1ccc2c(c1)nc(Nc1cccc(Cl)c1)c1ccncc12 [Compound K, 5-(3-chlorophenylamino)benzo[c][2,6]naphthyridine-8-carboxylic acid]
  linearity / dose proportionality of PK parameters: general linearity; also recorded: dose proportional pharmacokinetics
